Reference: patent publication EP4825857A1, “TRICYCLIC FUSED HETEROCYCLIC PDE3/4 DUAL INHIBITOR, AND PREPARATION AND USE THEREFOR” (dated 2026)

Chains of the proteins cited; added tags and fusions are not shown.
UniProt Q12809, whole entry: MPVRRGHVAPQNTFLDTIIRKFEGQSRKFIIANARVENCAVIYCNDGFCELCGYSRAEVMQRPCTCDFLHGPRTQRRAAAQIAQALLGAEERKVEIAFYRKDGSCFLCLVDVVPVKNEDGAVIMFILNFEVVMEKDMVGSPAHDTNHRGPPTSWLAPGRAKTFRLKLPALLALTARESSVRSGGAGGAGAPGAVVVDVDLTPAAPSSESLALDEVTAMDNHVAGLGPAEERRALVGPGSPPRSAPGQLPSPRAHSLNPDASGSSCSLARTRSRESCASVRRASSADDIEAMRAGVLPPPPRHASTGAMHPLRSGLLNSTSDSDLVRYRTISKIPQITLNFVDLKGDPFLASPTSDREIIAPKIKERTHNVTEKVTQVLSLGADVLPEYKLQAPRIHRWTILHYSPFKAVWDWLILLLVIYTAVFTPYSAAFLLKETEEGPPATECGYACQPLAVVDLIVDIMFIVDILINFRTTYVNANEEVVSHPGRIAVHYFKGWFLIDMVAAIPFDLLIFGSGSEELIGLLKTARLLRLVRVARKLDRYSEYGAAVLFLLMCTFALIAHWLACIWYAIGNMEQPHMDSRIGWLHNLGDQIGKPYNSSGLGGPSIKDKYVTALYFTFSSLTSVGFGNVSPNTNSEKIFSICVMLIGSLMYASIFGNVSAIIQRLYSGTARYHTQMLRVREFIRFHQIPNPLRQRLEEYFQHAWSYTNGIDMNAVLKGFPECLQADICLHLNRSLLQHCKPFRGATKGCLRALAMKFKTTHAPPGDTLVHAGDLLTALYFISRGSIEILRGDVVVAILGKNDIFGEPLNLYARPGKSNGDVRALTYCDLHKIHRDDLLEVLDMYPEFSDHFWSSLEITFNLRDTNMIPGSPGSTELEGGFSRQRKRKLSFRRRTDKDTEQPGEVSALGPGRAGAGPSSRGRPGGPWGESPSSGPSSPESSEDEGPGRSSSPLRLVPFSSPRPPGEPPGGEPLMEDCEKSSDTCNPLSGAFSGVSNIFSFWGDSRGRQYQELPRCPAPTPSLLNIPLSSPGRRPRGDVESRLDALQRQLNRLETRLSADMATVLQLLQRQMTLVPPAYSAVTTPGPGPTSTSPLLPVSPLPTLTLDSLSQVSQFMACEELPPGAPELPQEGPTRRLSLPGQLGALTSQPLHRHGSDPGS

Columns and labels:
hERG channel = hERG channel (Homo sapiens, UniProt Q12809); assay: hERG whole-cell patch-clamp (HEK293 stably expressing the hERG channel); details: hERG tail current
Experimental: A human embryonic kidney cell line (HEK293) stably expressing the hERG channel was cultured in DMEM medium in a cell culture incubator at 37°C under 5% CO2. The culture medium was supplemented with 10% fetal bovine serum (FBS) and G418 at a final concentration of 400 µg/mL. Prior to the assay, cells were digested with 0.25% trypsin when they reached approximately 75% confluence, as confirmed under an inverted microscope, to obtain a single-cell suspension. The cell suspension was pipetted dropwise onto cell coverslips, and the coverslips were then incubated in a cell culture incubator. After cell attachment, the cells on the coverslips were used for patch-clamp recording. Terfenadine was used as the positive control.
Voltage-clamp parameters were set using Clampex 10.6 software. In the whole-cell configuration, the cells were held at -80 mV for 125 ms and then subjected to a depolarizing voltage step to +50 mV for 5000 ms to activate the hERG channels. The membrane potential was subsequently repolarized to -50 mV for 5000 ms to elicit the characteristic hERG tail current, which was recorded. The tail current was used for data acquisition, measurement, and analysis.

[1] = Liver microsomal incubation assay (metabolic stability); details: for Metabolic Type (Fast/Moderate/ Slow) / CLint / T1/2 / T120 - Remaining (% of 0 min) / T1/2 (min), value in parentheses / CLint (mL/min/kg), value in parentheses: human liver microsomes; for CLint / T1/2 / T120 - Remaining (% of 0 min) / T1/2 (min), value in parentheses / CLint (mL/min/kg), value in parentheses: 0.5 µM; for T120 - Remaining (% of 0 min) / T120 NC - Remaining (% of 0 min- NC): 120 min; for T120 - Remaining (% of 0 min): NADPH and UDPGA; for T1/2 (min), value in parentheses: figure printed in parentheses behind the bound <30; for CLint (mL/min/kg), value in parentheses: figure printed in parentheses behind the bound >57.9; for T120 NC - Remaining (% of 0 min- NC): negative control without coenzyme (test compound + microsomes + buffer)
Experimental: Test Objective: To evaluate the in vitro metabolic stability of RPL-554, Compound 1-2, Compound 10-2, Compound 67, and Compound 69.
Test System: Human liver microsomes.
Incubation conditions: test compound incubation time, 0, 30, 60, and 120 min; test compound final concentration, 0.5 µM; microsomal protein concentration, 0.5 mg/mL; NADPH and UDPGA concentrations, 1.0 mM; temperature, 37.0 °C.
A mixed working solution of testosterone and 7-hydroxycoumarin was prepared.
A mixed solution of NADPH and UDPGA was prepared and prewarmed at 37 °C in a shaking water bath before use.
Liver microsomes were thawed and diluted with a buffer.
The prepared test compound solution and liver microsome suspension were added to each well of a incubation plate.
The experiment was divided into three groups, and the corresponding components were added to each group. Test group=test compound + microsomes + coenzyme. Test compound negative control group (NC)=test compound + microsomes + buffer. Positive control group=phase I and phase II substrates + microsomes + coenzyme.
All samples were incubated at 37 °C. At each designated termination time point, each reaction was stopped by adding pre-chilled methanol containing an internal standard, and the time was recorded.
After thorough mixing, all samples were centrifuged at 4,000 rpm for 10 min. The supernatants were collected and analyzed by LC-MS/MS.

Caco-2 cells = assay: Caco 2 cell permeability assay; details: for Recovery (%): Caco-2, 1 µM; for Recovery (%) / Papp/ 10^-6 cm/s: 2 h; for Papp/ 10^-6 cm/s: Caco-2, A-B, 1 µM, 37.0 °C; for Papp (A-B): Caco-2, test concentration of 1 µM
Experimental: Test Objective: To evaluate the Caco2 cell permeability to RPL-554, Compound 1-2, Compound 10-2, Compound 67, and Compound 69.
Cell Line: Human colorectal adenocarcinoma cell line.
Incubation conditions: Test system, Caco-2 cells; incubation time, 2 h; test compound final concentration, 1 µM; temperature, 37.0 °C.
Quality control before the permeability assay: Before the assay, the transepithelial electrical resistance of the cells was measured using a resistance meter, and the apparent transepithelial resistance of the cell monolayer was calculated.
Permeability assay: Before the assay, the culture medium was aspirated from the culture plate, and the cells were washed three times with HBSS buffer prewarmed at 37°C (Apical side and Basal side); After the buffer in the plate was aspirated, 800 µL of HBSS buffer prewarmed at 37 °C was added to the B side, and 500 µL of propranolol solution (PC), nadolol solution (SC), or a test compound solution prewarmed at 37 °C was added to A side. A 100 µL solution was then taken from the A side as the 0 h apical sample and stored at -20 °C until analysis. The culture plate was incubated at 37°C for 120 min. At the end of incubation, a 100 µL solution was collected from each sample at both A side and B side as the 120 min sample and stored at -20 °C until analysis. All samples were mixed with internal-standard-containing methanol at a ratio of 1:4 and analyzed by LC-MS/MS. After incubation, 100 µL was taken from the basal side and transferred to a black 96-well plate. An LFY standard curve was prepared, and fluorescence was measured using a fluorescence microplate reader at an excitation wavelength of 485 nm.
Note: The A side contained 10 µM Lucifer Yellow. All test compound buffers contained 0.1% BSA.

[2] = In vitro plasma protein binding (equilibrium dialysis); details: human plasma; for Protein Binding Ratio (%) Average / Protein Binding Ratio (%) Sample 1 / Protein Binding Ratio (%) Sample 2: 5 h, 37.0 °C
Experimental: Test Objective: To investigate the in vitro human plasma protein binding of RPL-554, Compound 1-2, Compound 10-2, Compound 67, and Compound 69.
Incubation conditions: test compound incubation time, 5 h; test compound final concentration, 0.5 µM; species, human; temperature, 37.0 °C.
Stock solutions of the test compounds and Warfarin were prepared, diluted, and added to the plasma matrix so that the final concentration of each test compound in the system was 10 µM, and the final concentration of Warfarin was 1 µM. Immediately after preparation, 50 µL of the sample was transferred into termination solution, and 50 µL of a blank buffer was added to obtain the T0 sample for recovery calculation.
For the test groups and system control group, 100 µL of plasma solution containing Warfarin or a test compound, or 100 µL of a buffer solution containing a test compound, was added to the donor chamber of an equilibrium dialysis device.
The donor and receiver chambers were incubated at 37 °C and 100 rpm for 5 h.
For the stability test group, each test compound was incubated with plasma or a blank buffer for 0 or 5 h.
At the incubation, 50 µL sample was collected from the donor chamber for each group, and 50 µL of a blank buffer was added. In addition, 50 µL sample was collected from the receiver chamber, and 50 µL of blank plasma was added, so that the final volume of each sample was 100 µL.
Methanol containing an internal standard was added to all samples to precipitate proteins. After centrifugation, the supernatant was collected, and the concentrations of the test compounds and Warfarin in the samples were determined by LC-MS/MS using relative quantification.

| SMILES | Inhibition rate (%) 1 µM (hERG channel) [%] | Inhibition rate (%) 10 µM (hERG channel) [%] | Metabolic Type (Fast/Moderate/ Slow) [1] | CLint [1] [mL/min/kg] | T1/2 [1] [min] | T120 - Remaining (% of 0 min) [1] | T1/2 (min), value in parentheses [1] [min] | CLint (mL/min/kg), value in parentheses [1] [mL/min/kg] | T120 NC - Remaining (% of 0 min- NC) [1] | Recovery (%) (Caco-2 cells) | Papp/ 10^-6 cm/s (Caco-2 cells) | Papp (A-B) (Caco-2 cells) [×10⁻⁶ cm/s] | plasma protein binding ratio (in words) [2] | Protein Binding Ratio (%) Average [2] [%] | Protein Binding Ratio (%) Sample 1 [2] [%] | Protein Binding Ratio (%) Sample 2 [2] [%] |
| --- | --- | --- | --- | --- | --- | --- | --- | --- | --- | --- | --- | --- | --- | --- | --- | --- |
| COc1cc2c(cc1OC)-c1cc(N(c3c(C)cc(C)cc3C)C(C)CNC(=O)c3[nH]nnc3C)nc(=O)n1CC2 (single isomer, unassigned) [Compound 12-1] | 11.5±4.6 | 27.9±5.6 | – | – | – | – | – | – | – | – | – | – | – | – | – | – |
| COc1cc2c(cc1OC)-c1cc(N(c3c(C)cc(C)cc3C)C(C)CNC(=O)c3ccccn3)nc(=O)n1CC2 (stereo not drawn) | 7.7±3.6 | 50.5±2.4 | – | – | – | – | – | – | – | – | – | – | – | – | – | – |
| COc1cc2c(cc1OC)-c1cc(N(c3c(C)cc(C)cc3C)C(C)CNC(=O)c3ncc[nH]3)nc(=O)n1CC2 (single isomer, unassigned) [Compound 10-2] | 23.0±4.9 | 62.5±15.4 | Fast | > 57.9 | < 30 | 4.53 % of 0 min | 11.8 | 147 | 79.3 % of 0 min- NC | 87.7 | 0.0477 10^-6 cm/s | 0.0477 | high plasma protein binding ratio | 96.6 | 96.3 | 96.9 |
| COc1cc2c(cc1OC)-c1cc(=Nc3c(C)cc(C)cc3C)n(CCNC(N)=O)c(=O)n1CC2 | 17.2±6.5 | 67.2±3.4 | Fast | > 57.9 | < 30 | 5.10 % of 0 min | 15.1 | 115 | 86.3 % of 0 min- NC | 116 | 0.643 10^-6 cm/s | 0.643 | high plasma protein binding ratio | 92.4 | 91.8 | 92.9 |
| COc1cc2c(cc1OC)-c1cc(N(c3c(C)cc(C)cc3C)C(C)CNC(=O)c3cccc(N)n3)nc(=O)n1CC2 (stereo not drawn) | – | – | Fast | > 57.9 | < 30 | 8.76 % of 0 min | 9.7 | 179 | 56.6 % of 0 min- NC | 75.9 | 0.422 10^-6 cm/s | 0.422 | high plasma protein binding ratio | 98.4 | 98.5 | 98.4 |
| COc1cc2c(cc1OC)-c1cc(N(c3c(C)cc(C)cc3C)C(C)CNC(N)=O)nc(=O)n1CC2 (single isomer, unassigned) [Compound 1-2] | 6.9±1.0 | 35.4±2.0 | Moderate | 27.1 | 64.2 | 27.5 % of 0 min | – | – | 86.1 % of 0 min- NC | 97.0 | 0.412 10^-6 cm/s | 0.412 | high plasma protein binding ratio | 92.3 | 93.9 | 90.6 |
| COc1cc2c(cc1OC)-c1cc(N(c3c(C)cc(C)cc3C)C(C)CNC(=O)c3cc(N)ccn3)nc(=O)n1CC2 (stereo not drawn) | – | – | Fast | > 57.9 | < 30 | 10.9 % of 0 min | 12.3 | 142 | 91.0 % of 0 min- NC | 117 | 0.594 10^-6 cm/s | 0.594 | high plasma protein binding ratio | 97.9 | 98.0 | 97.7 |
